Data on two compounds can be found in patent publication US20180271945A1, “UROCORTIN 2 ANALOGS AND USES THEREOF” (Research Development Foundation, priority 2009, published 2018).

Protein sequences, listed by entry. Tags and fused reporters are not part of them. Residues count along the entry.
UniProt P47866, 1-431 isoform P47866-2: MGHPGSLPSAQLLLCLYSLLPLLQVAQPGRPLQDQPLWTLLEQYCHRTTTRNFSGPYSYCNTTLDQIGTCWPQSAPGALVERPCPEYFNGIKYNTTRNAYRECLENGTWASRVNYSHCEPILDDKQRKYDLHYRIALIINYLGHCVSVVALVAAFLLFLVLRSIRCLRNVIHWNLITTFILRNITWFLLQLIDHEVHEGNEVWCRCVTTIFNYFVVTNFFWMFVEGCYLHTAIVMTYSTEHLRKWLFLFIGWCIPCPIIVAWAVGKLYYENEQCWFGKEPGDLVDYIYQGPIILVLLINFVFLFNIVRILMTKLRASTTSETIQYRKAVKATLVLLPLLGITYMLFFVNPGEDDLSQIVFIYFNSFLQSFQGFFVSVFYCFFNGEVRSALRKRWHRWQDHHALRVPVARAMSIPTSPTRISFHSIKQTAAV

The assay has as its target T1, CRFR2 (Rattus norvegicus, UniProt P47866).
T1 construct: A7r5 cells, which express CRFR2; endogenous in cells; host or cells: A7r5 cells
The assay is described as follows: stimulation of cAMP accumulation in A7r5 cells. It counts as cell-based. The conditions noted are these: which express CRFR2, range in brackets, number of assays as superscript. The method, then: Urocortin 2 precursors were overexpressed in various cell lines, and their function was evaluated. Pancreatic and skin cell lines were infected with mouse urocortin 2 (mUcn 2) lentivirus. The amino acid sequence of mouse urocortin 2 is provided as SEQ ID NO:10. […] The peptide was synthesized and bioactivity was determined by the stimulation of cAMP accumulation in A7r5 cells, which express CRFR2. […] It is possible that R^0mUcn 2 could be further processed by aminopeptidases to mUcn 2(1-38). Number of assays are depicted as a superscript.
The corresponding human analog, R^0hUcn 2, was synthesized.
The EC50S were calculated based on protein determination by immunoassay and chromatographic peak height.

In turn, `CC[C@H](C)[C@H](N)C(=O)N[C@H](C(=O)N[C@@H](CC(C)C)C(=O)N[C@@H](CO)C(=O)N[C@@H](CC(C)C)C(=O)N[C@@H](CC(=O)O)C(=O)N[C@H](C(=O)N1CCC[C@H]1C(=O)N[C@H](C(=O)NCC(=O)N[C@@H](CC(C)C)C(=O)N[C@@H](CC(C)C)C(=O)N[C@@H](CCC(N)=O)C(=O)N[C@H](C(=O)N[C@@H](CC(C)C)C(=O)N[C@@H](CC(C)C)C(=O)N[C@@H](CCC(=O)O)C(=O)N[C@@H](CCC(N)=O)C(=O)N[C@@H](C)C(=O)N[C@@H](CCCNC(=N)N)C(=O)N[C@@H](C)C(=O)N[C@@H](CCCNC(=N)N)C(=O)N[C@@H](C)C(=O)N[C@@H](C)C(=O)N[C@@H](CCCNC(=N)N)C(=O)N[C@@H](CCC(=O)O)C(=O)N[C@@H](CCC(N)=O)C(=O)N[C@@H](C)C(=O)N[C@H](C(=O)N[C@H](C(=O)N[C@@H](CC(N)=O)C(=O)N[C@@H](C)C(=O)N[C@@H](CCCNC(=N)N)C(=O)N[C@H](C(=O)N[C@@H](CC(C)C)C(=O)N[C@@H](C)C(=O)N[C@@H](CCCNC(=N)N)C(=O)N[C@H](C(N)=O)C(C)C)[C@@H](C)CC)[C@@H](C)O)[C@@H](C)O)[C@@H](C)CC)[C@@H](C)CC)C(C)C)C(C)C` [hUcn 2, reference compound] had an EC50 of 0.11 nM.
The result for `CC[C@H](C)[C@H](NC(=O)[C@H](CCC(N)=O)NC(=O)[C@H](C)NC(=O)[C@H](CC(N)=O)NC(=O)[C@@H](NC(=O)[C@H](C)NC(=O)[C@H](C)NC(=O)[C@H](CCC(N)=O)NC(=O)[C@H](CC(N)=O)NC(=O)[C@H](CCCNC(=N)N)NC(=O)[C@H](C)NC(=O)[C@H](C)NC(=O)[C@H](CCCCN)NC(=O)[C@H](Cc1ccc(O)cc1)NC(=O)[C@H](CCCNC(=N)N)NC(=O)[C@H](C)NC(=O)[C@H](CCC(N)=O)NC(=O)[C@H](CCC(=O)O)NC(=O)[C@H](CC(C)C)NC(=O)[C@H](CC(C)C)NC(=O)[C@@H](NC(=O)[C@H](CCCNC(=N)N)NC(=O)[C@H](CC(C)C)NC(=O)[C@H](CC(C)C)NC(=O)CNC(=O)[C@@H](NC(=O)[C@@H]1CCCN1C(=O)[C@@H](NC(=O)[C@H](CC(=O)O)NC(=O)[C@H](CC(C)C)NC(=O)[C@H](CO)NC(=O)[C@H](CC(C)C)NC(=O)[C@@H](NC(=O)[C@@H](N)C(C)C)[C@@H](C)CC)C(C)C)[C@@H](C)CC)[C@@H](C)CC)[C@@H](C)O)C(=O)N[C@@H](CC(C)C)C(=O)N[C@@H](C)C(=O)N[C@@H](Cc1c[nH]cn1)C(=O)N[C@H](C(N)=O)C(C)C` [mUcn 2, reference compound] reads 0.07 nM.
